Values quoted from earlier work, collected in publication PMC3591448, “Profile of the GSK Published Protein Kinase Inhibitor Set Across ATP-Dependent and-Independent Luciferases: Implications for Reporter-Gene Assays” (PLoS ONE, 2013).

Tested on: GSK3α
Design: method as in Witherington, J., et al. 2003
Details: ref Witherington, J., et al. 2003; read-out: PKI IC50 (µM), GSK3α; cited from earlier work

For `COc1ccc(-c2ccc3c(NC(=O)C4CC4)n[nH]c3n2)cc1` [SB-711237], the IC50 is listed as greater than 5 µM.
